Laboratory results: PubChem BioAssay AID624038 (The Scripps Research Institute Molecular Screening Center, 2012)
Only a part is listed here, and it is no random draw. Activity calls are given as the source filed them.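 How the source made its calls: active means activation above the run cutoff, the mean activation of all test compounds plus 3 SD (cut at about 18% in these data); inactive means the rest.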

Amino acid sequences for entries named in this document (tags omitted).
UniProt P08912, whole entry: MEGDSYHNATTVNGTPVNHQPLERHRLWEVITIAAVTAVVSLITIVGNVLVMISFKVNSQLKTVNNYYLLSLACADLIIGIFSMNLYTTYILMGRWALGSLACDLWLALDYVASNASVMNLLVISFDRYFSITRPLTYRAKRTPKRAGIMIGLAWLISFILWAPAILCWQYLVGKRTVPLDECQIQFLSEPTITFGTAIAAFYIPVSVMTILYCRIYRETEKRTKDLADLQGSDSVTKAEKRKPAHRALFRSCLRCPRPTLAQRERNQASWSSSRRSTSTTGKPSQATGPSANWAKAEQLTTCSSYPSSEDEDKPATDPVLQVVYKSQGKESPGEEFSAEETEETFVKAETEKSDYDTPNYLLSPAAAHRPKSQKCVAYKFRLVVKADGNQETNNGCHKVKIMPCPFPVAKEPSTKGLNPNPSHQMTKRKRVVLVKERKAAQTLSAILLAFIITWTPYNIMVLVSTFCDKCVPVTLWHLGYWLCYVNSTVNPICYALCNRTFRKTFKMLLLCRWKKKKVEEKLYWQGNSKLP

biological target: Muscarinic acetylcholine receptor M5 (Homo sapiens) (UniProt P08912); test: CHRM5 PAMs potentiating acetylcholine calcium signal – CHO-K1 cells, Fluo-8 calcium fluorescence, primary screen (AID 624038); conditions: CHO-K1 hM5, Fluo-8 calcium, ACh EC20 PAM; at 3 µM; hits give high values; 0% = ACh EC20, 100% = ACh EC100

Row | SMILES | activation
1 | CCC(c1nnnn1C1CCCC1)N1CCC(n2c(=O)[nH]c3ccccc32)CC1 (stereo not drawn) | inactive: -13.8%
2 | COc1ccc(C(=O)NCC2(N3CCCCC3)CCCCC2)cc1 | inactive: 4.76%
3 | CCCCn1nnnc1C(CC)N1CCC(n2c(=O)[nH]c3ccccc32)CC1 (stereo not drawn) | inactive: -13.4%
4 | O=C(NCC1(N2CCCCC2)CCCCC1)c1cccs1 | inactive: -2.97%
5 | CCCCn1nnnc1C(c1cccs1)N1CCC(n2c(=O)[nH]c3ccccc32)CC1 (stereo not drawn) | inactive: -18.9%
6 | O=C(NCC1(N2CCCCC2)CCCCC1)c1ccc(=O)[nH]c1 | inactive: -6.04%
7 | Cc1cccc(NC2(C#N)CCN(Cc3ccccc3)CC2)c1 | inactive: 1.68%
8 | CSc1ccccc1C(=O)NCC1(N2CCCCC2)CCCCC1 | inactive: 3.32%
9 | O=c1[nH]c2ccccc2n1C1CCN(C(c2ccccc2)c2nnnn2C2CCCCC2)CC1 (stereo not drawn) | inactive: -3.95%
10 | CCOC(=O)N1CCC(Nc2cccc(C)c2)CC1 | inactive: -4.44%
11 | COc1cc(C(=O)NCC2(N(C)C)CCCCC2)ccc1OC(F)F | inactive: -1.63%
12 | O=c1[nH]c2ccccc2n1C1CCN(C(c2cccc3ccccc23)c2nnnn2C2CCCC2)CC1 (stereo not drawn) | inactive: -0.28%
13 | O=C1CCN(Cc2ccccc2)CC1 | inactive: -0.49%
14 | CC(C)(C)n1nnnc1C(c1ccccc1)N1CCC(n2c(=O)[nH]c3ccccc32)CC1 (stereo not drawn) | inactive: -9%
15 | CCOc1ccc(C)cc1CN(CCCl)CCCl | inactive: -21.9%
16 | CCOC(=O)N1CCC(Nc2ccc(F)cc2)CC1 | inactive: -5.56%
17 | COc1ccc(NC2CCN(CCc3ccccc3)CC2)c(OC)c1 | inactive: -2.86%
18 | CCCCOc1ccc(C(=O)NCC2(N3CCOCC3)CCCCC2)cc1 | inactive: 1.68%
19 | CCCCn1nnnc1C(c1cc2ccccc2o1)N1CCC(n2c(=O)[nH]c3ccccc32)CC1 (stereo not drawn) | inactive: -6.18%
20 | O=P1(N(CCCl)CCCl)SCCCS1 | inactive: 11.5%
21 | O=C(NCC1(N2CCCCC2)CCCCC1)c1ccc(F)cc1 | inactive: -4.42%
22 | O=C(NCC1(N2CCCCC2)CCCCC1)c1cccc(C(F)(F)F)c1 | inactive: 2.96%
23 | O=C(NCC1(N2CCOCC2)CCCCC1)c1cc(=O)[nH]c2ccccc12 | inactive: 0.44%
24 | COc1cc(C(=O)NCC2(N3CCCCC3)CCCCC2)ccc1OC(F)F | inactive: -15.7%

Row | SMILES | activation
25 | COc1ccc(NC2CCN(C(=O)OC(C)(C)C)CC2)cc1 | inactive: -4.22%
26 | CC(C)c1ccc(C(=O)NCC2(N3CCOCC3)CCCCC2)cc1 | inactive: 4.48%
27 | CN1CCN(CCOC(=O)C(O)(c2ccccc2)c2ccccc2)CC1 | inactive: -20.2%
28 | CCCCn1nnnc1C(c1cccc2ccccc12)N1CCC(n2c(=O)[nH]c3ccccc32)CC1 (stereo not drawn) | inactive: -2.55%
29 | O=C(NCC1(N2CCCCC2)CCCCC1)c1ccc(OC(F)F)cc1 | inactive: -3.13%
30 | CC(C)(C)n1nnnc1C(c1ccccc1OC(F)(F)F)N1CCC(n2c(=O)[nH]c3ccccc32)CC1 (stereo not drawn) | inactive: -0.79%
31 | O=c1[nH]c2ccccc2n1C1CCN(C(c2ccccc2OC(F)(F)F)c2nnnn2C2CCCC2)CC1 (stereo not drawn) | inactive: 0.18%
32 | N#CC1(Nc2ccccc2)CCN(CCc2ccccc2)CC1 | inactive: 1.63%
33 | CCN1CCC(Nc2ccc(Cl)cc2)CC1 | inactive: -1.63%
34 | O=C(NCC1(N2CCCCC2)CCCCC1)c1cccc([N+](=O)[O-])c1 | inactive: 4.14%
35 | CSc1ccc(C(=O)NCC2(N3CCOCC3)CCCCC2)cc1 | inactive: -1.11%
36 | CN1CCC(Nc2cccc(F)c2)CC1 | inactive: -2.53%
37 | O=C(NCC1(N2CCCCC2)CCCCC1)c1cncc(Br)c1 | inactive: 2.95%
38 | COc1ccc(C(c2nnnn2C2CCCC2)N2CCC(n3c(=O)[nH]c4ccccc43)CC2)cc1 (stereo not drawn) | inactive: -15.6%
39 | CCCOc1ccc(C(=O)NCC2(N(C)C)CCCCC2)cc1OC | inactive: 6.8%
40 | Cc1ccc(C(=O)NCC2(N(C)C)CCCCC2)o1 | inactive: -3.26%
41 | CCCCn1nnnc1C(c1ccccc1OC(F)(F)F)N1CCC(n2c(=O)[nH]c3ccccc32)CC1 (stereo not drawn) | inactive: 1.66%
42 | CC(C)c1ccc(NC2CCN(C(=O)OC(C)(C)C)CC2)cc1 | inactive: -0.61%
43 | CN(C)c1cccc(C(=O)NCC2(N3CCCCC3)CCCCC2)c1 | inactive: -2.87%
44 | COc1ccc(CN(CCCl)CCCl)cc1Cl | inactive: 0.59%
45 | CCC(c1nnnn1C(C)(C)C)N1CCC(n2c(=O)[nH]c3ccccc32)CC1 (stereo not drawn) | inactive: -8.49%
46 | O=C(NCC1(N2CCOCC2)CCCCC1)c1cc(F)c(F)cc1Cl | inactive: 1.44%
47 | COc1cc(OC)c(C(=O)NCC2(N(C)C)CCCCC2)cc1OC | inactive: 3.23%
48 | CCCCn1nnnc1C(c1ccnc2ccccc12)N1CCC(n2c(=O)[nH]c3ccccc32)CC1 (stereo not drawn) | inactive: -13%
